Measured values published in paper doi:10.1101/2019.12.31.891234.
pKd: −log10 of the molar value.

Protein sequences, listed by entry. Tags and fused reporters are not part of them. Lines headed by an entry give the natural chain unless they say otherwise; changes in a name come on top.
UniProt Q2XVP4: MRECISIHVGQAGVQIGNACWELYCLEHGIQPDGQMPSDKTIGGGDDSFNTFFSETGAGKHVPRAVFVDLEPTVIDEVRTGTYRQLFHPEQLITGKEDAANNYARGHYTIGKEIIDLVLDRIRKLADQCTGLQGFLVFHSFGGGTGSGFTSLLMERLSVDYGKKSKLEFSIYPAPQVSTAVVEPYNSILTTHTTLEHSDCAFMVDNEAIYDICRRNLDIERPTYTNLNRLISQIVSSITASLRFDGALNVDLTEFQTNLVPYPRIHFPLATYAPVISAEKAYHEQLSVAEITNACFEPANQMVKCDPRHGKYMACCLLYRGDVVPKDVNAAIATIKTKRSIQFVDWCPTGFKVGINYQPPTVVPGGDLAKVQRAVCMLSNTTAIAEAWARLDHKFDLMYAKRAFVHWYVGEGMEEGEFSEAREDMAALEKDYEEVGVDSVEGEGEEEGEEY

Target: microtubules in LLC-PK1 cells (pig (endogenous in LLC-PK1)) (UniProt Q2XVP4)
Test: quantitative fluorescence microscopy in live cells

- pKd: 5.96
Substance: human 2N4R tau tagged with EGFP (from UniProt P10636-8 1-441) (natural protein)
